# Results taken from patent US5773424A, “Treatment of toxoplasmosis” (priority 1994, dated 1998).
# Chains of the proteins cited; added tags and fusions are not shown. Lines headed by an entry give the natural chain unless they say otherwise; changes in a name come on top.
# UniProt Q9TVW2: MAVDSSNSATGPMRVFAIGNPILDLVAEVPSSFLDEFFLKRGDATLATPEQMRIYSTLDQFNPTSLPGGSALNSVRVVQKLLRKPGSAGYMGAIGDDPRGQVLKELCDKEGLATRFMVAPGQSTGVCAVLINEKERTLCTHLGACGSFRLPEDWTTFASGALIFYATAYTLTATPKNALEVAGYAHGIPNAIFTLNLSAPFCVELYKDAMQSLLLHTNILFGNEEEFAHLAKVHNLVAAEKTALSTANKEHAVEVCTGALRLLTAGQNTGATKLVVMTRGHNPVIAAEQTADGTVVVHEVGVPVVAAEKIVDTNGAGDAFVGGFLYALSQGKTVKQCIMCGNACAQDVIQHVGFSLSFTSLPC
# Molecular target: T. gondii adenosine kinase (Toxoplasma gondii, UniProt Q9TVW2)
# Assay: biochemical
# Conditions: AppKi for inhibition of T. gondii adenosine kinase, 5 μM adenosine; ± range, at least two estimations
# Experimental: Preparation of cytosol extracts. For the structure activity relationships studies, approximately 5×10^8 T. gondii were suspended in 1.2 ml of 50 mM N-2-hydroxyethylpiperazine-N'-2-ethanesulfonic acid (HEPES)-Cl (pH 8.0)/1 mM dithiothreitol and homogenized for 30 seconds at setting 10, using a Brinnmann Instruments Polytron homogenizer fitted with a PTA 7K1 probe. The homogenate was then centrifuged at approximately 116,000 g for 1 hour at 5° and the supernatant (cytosol extract) collected and used as the enzyme source. Fresh cytosol extracts were prepared for each experiment.
# Adenosine kinase assay. T. gondii adenosine kinase activity was measured by following the formation of [^14 C]AMP from [^14 C]adenosine and ATP. […]
# Reactions were started by the addition of [8-^14 C]adenosine, incubated at 37° for 10 minutes and terminated by placing the reaction tubes in a boiling water bath for 2 minutes. […] The substrate and product spots (which accounted for all of the radioactivity on the plates) were identified by UV quenching, cut out, and the radioactivity quantitated by liquid scintillation counting in 20 ml of Scintilene, using a Packard 460 scintillation counter. […] Enzyme velocity was calculated by multiplying the fraction of AMP formed from adenosine times the amount of adenosine in the assay, and dividing by the incubation time. […]
structure (smiles),measurement,value
"NC[C@H]1O[C@@H](n2cnc3c(N)ncnc32)[C@H](O)[C@@H]1O [Compound 94, 5'-Amino-5'-deoxyadenosine]",Ki,220 ± 40 µM
